Measured values: ChEMBL document CHEMBL4806967, “Heterocyclic kinase inhibitors and uses thereof” (2020)

Amino acid sequences for entries named in this document (tags omitted).
UniProt P11712, whole entry: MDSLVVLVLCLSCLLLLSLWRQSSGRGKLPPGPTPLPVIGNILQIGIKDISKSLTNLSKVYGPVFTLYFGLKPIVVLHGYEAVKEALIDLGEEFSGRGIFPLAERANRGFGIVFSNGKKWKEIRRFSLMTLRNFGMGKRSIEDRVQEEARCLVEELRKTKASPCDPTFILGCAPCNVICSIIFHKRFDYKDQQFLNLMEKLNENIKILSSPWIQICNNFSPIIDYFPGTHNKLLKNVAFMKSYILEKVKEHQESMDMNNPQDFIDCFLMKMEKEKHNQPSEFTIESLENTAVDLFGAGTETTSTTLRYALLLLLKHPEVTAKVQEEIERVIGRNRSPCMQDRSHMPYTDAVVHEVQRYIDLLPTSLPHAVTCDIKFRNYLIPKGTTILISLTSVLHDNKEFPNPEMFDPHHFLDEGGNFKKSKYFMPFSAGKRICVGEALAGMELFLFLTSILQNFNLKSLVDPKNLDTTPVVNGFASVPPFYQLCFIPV

How the values were obtained:
[1] = human, microsomes
[2] = mouse, microsomes
Cytochrome P450 2C9 = Cytochrome P450 2C9 (Homo sapiens, UniProt P11712)
Cytochrome P450 2A6 = biological target: T1, Cytochrome P450 2A6 (Homo sapiens, UniProt P11509)
T1 sequence (P11509 whole entry): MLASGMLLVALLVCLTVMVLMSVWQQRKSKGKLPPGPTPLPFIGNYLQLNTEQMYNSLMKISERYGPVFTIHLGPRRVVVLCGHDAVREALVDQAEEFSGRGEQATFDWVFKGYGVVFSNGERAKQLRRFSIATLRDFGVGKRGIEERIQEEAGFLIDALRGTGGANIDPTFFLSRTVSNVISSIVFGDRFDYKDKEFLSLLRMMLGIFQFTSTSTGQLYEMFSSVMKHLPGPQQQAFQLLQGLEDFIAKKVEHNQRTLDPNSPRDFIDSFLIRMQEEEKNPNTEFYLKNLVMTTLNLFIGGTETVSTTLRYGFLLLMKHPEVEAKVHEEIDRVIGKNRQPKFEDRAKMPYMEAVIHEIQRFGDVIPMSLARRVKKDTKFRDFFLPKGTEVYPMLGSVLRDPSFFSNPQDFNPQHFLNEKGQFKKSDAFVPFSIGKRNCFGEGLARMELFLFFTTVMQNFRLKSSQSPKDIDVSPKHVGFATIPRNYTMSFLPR

## Cc1nc(Nc2ncc(C(=O)Nc3c(C)cccc3Cl)s2)cc(N2CCN(CCO)CC2)n1.O [DASATINIB]
[1]
  t1/2: 10 min
[2]
  t1/2: 18 min
Cytochrome P450 2C9
  IC50: 50 µM
Cytochrome P450 2A6
  IC50: 35 µM
